Assay results taken from article PMC10666288, “Unveiling the Catalytic Mechanism of a Processive Metalloaminopeptidase” (Biochemistry, 2023).

Test system: CC(C)C[C@H](NC(=O)[C@@H](NC(=O)[C@H](C)N)C(C)C)C(=O)N[C@@H](CCC(N)=O)C(=O)N[C@@H](CO)C(=O)NCC(=O)N[C@@H](Cc1ccccc1)C(=O)N[C@@H](CCCNC(=N)N)C(=O)N[C@@H](CCCCN)C(=O)N[C@@H](CCCCN)C(N)=O
Assay: purified protein, by the assay type
Conditions: other: progress curves of parent peptide fitted in Kintek Global Explorer, 1 μM PaPepA, 3 mM MnCl2; pH 8.0

Substance: PaPepA (Pseudomonas aeruginosa UCBPP-PA14)
- Km: 155 µM
